Compound activity as filed in PubChem BioAssay.
Only a selection was taken, and hits are over-represented in it overall.
HCMV NEC inh: inhibitors of HCMV UL50-UL53 interaction, biochemical, HTRF. normalized percent inhibition. inhibition, % (no concentration beside the values). 0.15% of 190,000 active. AID 1918969, 2023; in the data active = inhibition above about 27%, passing the limit was not always enough
GIV Gai3 FP: inhibitors of GIV GBA-motif binding to rat Galpha-i3; P08753; Galpha-i3/FITC-GIV peptide fluorescence polarization, 90 min; hits give low values; scaled: aluminum fluoride 0%, vehicle 100%; percent of control (FP), % (test concentration not listed); AID 1224905; hit rate 0.42% among 210,000;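 active = replicate mean at 85% of control or lower, very high polarization wells dropped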;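 note: wells of about 15 µL received 100 nL stock; the first replicate is given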
GIV-Gai FP conf: inhibitors of GIV peptide binding to Galpha-i3, confirmation, biochemical, fluorescence polarization, FITC-GIV peptide, rat Galphai3 | shares compounds with GIV Gai3 FP | active compounds read low | fluorescence polarization, mP at 100 µM | 38% of 580 active;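 active = inhibition score of 15 or more, meaning 100 minus mean polarization as percent of control over three replicates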;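 note: lower mP means peptide displaced from Galphai3 so more inhibition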
GIV Gai AS conf: inhibitors of GIV binding to Galpha-i3, confirmation, orthogonal assay for GIV-Galpha-i inhibitor project, biochemical, AlphaScreen, His-GIV, GST-Galphai3; shares compounds with GIV Gai3 FP; purified proteins, 90 min; active compounds read low; AlphaScreen counts at 100 µM; 39% of 580 active; AID 1259351, 2017;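 active = inhibition score at or above a set limit, where the score is 100 minus the three-replicate mean percent of control signal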
* hit, by the source's call; nt = no result given.

1. COC(=O)c1ccc2c(c1)N(Cc1ccc(Cl)cc1)C(=O)CS2
2. CCCCN(C)S(=O)(=O)c1ccc2c(c1)CC(C)N2C(C)=O (stereo not given)
3. CN(CCCC(=O)O)S(=O)(=O)c1ccc2c(c1)Cc1cc(S(=O)(=O)N(C)CCCC(=O)O)ccc1-2
4. CCOC(=O)/C(C#N)=C\c1cc2ccc(OC)cc2[nH]c1=O
5. COc1cccc(C(=O)NCCc2cc3ccc(OC)cc3[nH]c2=O)c1

entry no.	1	2	3	4	5
HCMV NEC inh	nt	-17	nt	-59	-19
GIV Gai3 FP	106	100	83*	56*	107
GIV-Gai FP conf	nt	nt	50*	82	nt
GIV Gai AS conf	nt	nt	26370*	26623	nt

6. COc1ccc(C(C2C(=O)N(c3ccccc3)N=C2C)C2C(=O)N(c3ccccc3)N=C2C)cc1OC (stereo not given)
7. COc1ccccc1C(C1C(=O)N(c2ccccc2)N=C1C)C1C(=O)N(c2ccccc2)N=C1C (stereo not given)
8. CCOC(=O)C1=C(C)NC2=C(C(=O)C(C(=O)OCC)C(c3cccc(OC)c3)C2)C1c1ccc(N(C)C)cc1 (stereo not given)
9. CCC(=O)Nc1cc2nc3[nH]c(=O)n(C)c(=O)c3nc2cc1C
10. CCCCCCC(=O)Nc1cc2nc3[nH]c(=O)n(C)c(=O)c3nc2cc1C

entry no.	6	7	8	9	10
HCMV NEC inh	nt	nt	nt	-162	-64
GIV Gai3 FP	77*	114	101	21*	100
GIV-Gai FP conf	62	nt	nt	46*	nt
GIV Gai AS conf	15958*	nt	nt	34033	nt

Fetched one by one from above:
7. COc1ccccc1C(C1C(=O)N(c2ccccc2)N=C1C)C1C(=O)N(c2ccccc2)N=C1C (stereo not given)
9. CCC(=O)Nc1cc2nc3[nH]c(=O)n(C)c(=O)c3nc2cc1C
10. CCCCCCC(=O)Nc1cc2nc3[nH]c(=O)n(C)c(=O)c3nc2cc1C
2. CCCCN(C)S(=O)(=O)c1ccc2c(c1)CC(C)N2C(C)=O (stereo not given)

entry no.	7	9	10	2
HCMV NEC inh	nt	-162	-64	-17
GIV Gai3 FP	114	21*	100	100
GIV-Gai FP conf	nt	46*	nt	nt
GIV Gai AS conf	nt	34033	nt	nt

(continued)
11. CC1(C)C=C(O)C(C2(O)C(=O)c3ccccc3C2=O)C(=O)C1 (stereo not given)
12. CC1(C)CC(=O)C(C2(O)C(=O)c3ccccc3C2=O)C(=O)C1
13. COc1ccc(-c2cc(=Nc3ccc(C)cc3C)c3cc(O)ccc3o2)cc1
14. COc1ccc(-c2c/c(=N\O)c3cc(F)ccc3o2)cc1
15. NS(=O)(=O)c1cc(C(=O)Nc2ccccc2N2CCOCC2)ccc1Cl

entry no.	11	12	13	14	15
HCMV NEC inh	63	82*	nt	-20	-8
GIV Gai3 FP	nt	66*	75*	nt	nt
GIV-Gai FP conf	nt	58*	64	nt	nt
GIV Gai AS conf	nt	44260	35576	nt	nt

16. CCOc1ccccc1CN1C(=O)c2ccccc2C1C(=O)NCCc1ccccc1 (stereo not given)
17. COc1ccc2c(C)[nH]c(=O)cc2c1
18. CCCc1[nH]c(=O)cc2cc(OC)c(OC)cc12
19. O=C(Nc1ccc2n[nH]nc2c1)c1cccc(Cl)c1
20. CCN1C(=O)c2cccc3c(NC(=O)c4ccc(S(=O)(=O)N5CCCC5)cc4)ccc1c23

entry no.	16	17	18	19	20
HCMV NEC inh	-6	nt	42	nt	nt
GIV Gai3 FP	104	104	77*	105	89
GIV-Gai FP conf	nt	nt	58	nt	79
GIV Gai AS conf	nt	nt	23102*	nt	47241

21. CCN1C(=O)c2cccc3c(NC(=S)NC(=O)c4ccc(S(=O)(=O)N5CCCC5)cc4)ccc1c23
22. CC(=O)Nc1ccc(NC(=O)CCc2c(C)nn(-c3ccc4nncn4n3)c2C)cc1
23. Cc1nn(-c2ccc3nncn3n2)c(C)c1CCC(=O)Nc1ccc(F)c(Cl)c1
24. COC(=O)c1ccc(NC(=O)c2nn(C)c3c2CS(=O)(=O)c2ccccc2-3)cc1
25. Cn1nc(C(=O)Nc2ccc(F)cc2)c2c1-c1ccccc1S(=O)(=O)C2

entry no.	21	22	23	24	25
HCMV NEC inh	nt	nt	nt	-16	0
GIV Gai3 FP	107	103	89	86	104
GIV-Gai FP conf	nt	nt	78	83	nt
GIV Gai AS conf	nt	nt	27312	37898	nt

26. O=CN1CCN(c2nc(-c3ccccc3)cs2)CC1
27. Cc1nnc(NC(=O)COc2ccc(-c3nc(-c4ccccc4)no3)cc2)s1
28. O=C(CCN1C(=O)/C(=C/c2ccc3c(c2)OCO3)SC1=S)Nc1nc2ccccc2s1
29. O=C(CCN1C(=O)/C(=C/c2ccc3c(c2)OCO3)SC1=S)Nc1nc(-c2ccccc2)cs1
30. COc1ccc(-c2[nH]nc3c2C(c2cc(OC)c(OC(=O)N4CCOCC4)c(OC)c2)C(C#N)=C(N)O3)cc1 (stereo not given)

entry no.	26	27	28	29	30
HCMV NEC inh	-19	3	-20	-37	nt
GIV Gai3 FP	106	107	72*	107	112
GIV-Gai FP conf	nt	nt	88	nt	nt
GIV Gai AS conf	nt	nt	35546	nt	nt

31. COc1cccc(N2C(=O)C(N3C(=O)c4ccc([N+](=O)[O-])cc4C3=O)C2c2cccc(F)c2)c1 (stereo not given)
32. Nc1nnn2c(=O)c3cccc4cccc(c43)c12
33. O=c1c2cccc3cccc(c32)c2nc3ccc4ccccc4c3n12
34. CCC1C/C(=C\c2ccc(Br)cc2)C(=O)/C(=C/c2ccc(Br)cc2)C1 (stereo not given)
35. CCC1C/C(=C\c2ccc(OCC(N)=O)cc2)C(=O)/C(=C/c2ccc(OCC(N)=O)cc2)C1 (stereo not given)

entry no.	31	32	33	34	35
HCMV NEC inh	nt	-108	nt	nt	nt
GIV Gai3 FP	105	88	112	99	89
GIV-Gai FP conf	nt	79	nt	nt	75
GIV Gai AS conf	nt	19934*	nt	nt	15830*

36. S=C1NCc2ccsc2S1
37. CC(C)Cn1cc(I)c(=O)n(CC(C)C)c1=O
38. CC(NC(=O)CSc1nnnn1C)c1ccccc1 (stereo not given)
39. Cn1nnnc1SCC(=O)NC1Cc2ccccc2C1
40. N#C/C(=C\c1ccc(-c2cc(Cl)ccc2Cl)o1)C(=O)Nc1ccccc1C(=O)O

entry no.	36	37	38	39	40
HCMV NEC inh	-242	-26	-3	-12	-74
GIV Gai3 FP	49*	108	nt	87	113
GIV-Gai FP conf	51*	nt	nt	69	nt
GIV Gai AS conf	31760*	nt	nt	47713	nt

41. N#C/C(=C/c1ccc(-c2ccc(S(N)(=O)=O)cc2)o1)C(=O)Nc1cc(Cl)ccc1Cl
42. Cc1ccc(NC(=O)/C(C#N)=C\c2ccc(-c3ccc(Cl)cc3)o2)c(C)c1
43. CCOC(=O)c1ccccc1NC(=O)/C(C#N)=C/c1ccc(-c2ccc(Cl)cc2)o1
44. CCC(=O)c1ccc(OCC(=O)NCCCN2CCCC2=O)cc1
45. O=c1[nH]c(SCc2nc3ccccc3[nH]2)nc2nc[nH]c12

entry no.	41	42	43	44	45
HCMV NEC inh	-15	-51	-19	-35	-18
GIV Gai3 FP	75*	106	76*	nt	128
GIV-Gai FP conf	80	nt	31*	nt	nt
GIV Gai AS conf	30693	nt	11443*	nt	nt

46. CCN(CCN(C)C)c1ncc(NS(=O)(=O)CC)cc1C(=O)O
47. CCCCN(CC)c1ncc(NS(=O)(=O)CC)cc1C(=O)O
48. O=C(C1CCC1)N1CCC2(CC1)Nc1ccccc1-n1cccc12
49. CCN(CC)c1ccc(N)c(C)c1
50. CCN(CC)c1ccc(NC(C)=O)c(C)c1

entry no.	46	47	48	49	50
HCMV NEC inh	-24	-39	-38	-64	-13
GIV Gai3 FP	71*	110	106	41*	102
GIV-Gai FP conf	34*	nt	nt	74	nt
GIV Gai AS conf	21018*	nt	nt	1482*	nt

51. CC1(C)OC(=O)C(=Cc2ccc(-c3ccc(S(N)(=O)=O)cc3)o2)C(=O)O1
52. CN1C(=O)/C(=C\c2ccc(-c3ccc(S(N)(=O)=O)cc3)o2)c2ccccc21
53. Cc1ccc(NC(=O)Cn2cnc3sc(C(=O)N4CCC(Cc5ccccc5)CC4)c(C)c3c2=O)cc1Cl
54. CCN(CC)C(=S)Nc1ccc2nsnc2c1
55. COc1cccc(NC(=O)c2ccc3nsnc3c2)c1

entry no.	51	52	53	54	55
HCMV NEC inh	-42	-34	nt	nt	-128
GIV Gai3 FP	87	nt	113	66*	101
GIV-Gai FP conf	67	nt	nt	27*	nt
GIV Gai AS conf	4423*	nt	nt	10807*	nt

56. S=C(Nc1ccc2nsnc2c1)N1CCCC1
57. Fc1ccc(NC(=S)N2CCCCC2)cc1
58. O=C(O)c1nc(N2CCOCC2)ncc1Cl
59. Cc1cc(C)cc(Nc2cc(-n3nc(C)cc3C)ncn2)c1
60. COC(=O)c1cc(Oc2nc(C)nc3sc4c(c23)CCC4)cc(C(=O)OC)c1

entry no.	56	57	58	59	60
HCMV NEC inh	nt	-3	-30	nt	nt
GIV Gai3 FP	81*	102	nt	103	101
GIV-Gai FP conf	23*	nt	nt	nt	nt
GIV Gai AS conf	11675*	nt	nt	nt	nt
